{"source": "paper doi:10.1101/810531", "about": "(bioRxiv, 2019)", "molecular_target": "SNARE domain of syntaxin 1a (aa 180-262) (Rattus norvegicus, UniProt P32851, in part)", "test": "native gel or EMSA", "data": [{"binder": "second helix of SNAP-25 (aa 120-206) (domain or fragment) VVDEREQMAISGGFIRRVTNDARENEMDENLEQVSGIIGNLRHMALDMGNEIDTQNRQIDRIMEKADSNKTRIDEANQRATKMLGSG", "values": [{"measurement": "binding result", "value": "binds"}]}]}
